According to patent US6924314B2, “Compounds for the treatment of metabolic disorders” (Wellstat Therapeutics Corporation, priority 2001, dated 2005):

Tested on: ob/ob mice
Assay: Hyperglycemia, hyperlipidemia, fatty liver disease and weight gain in ob/ob obese diabetic mice, daily oral dosing
Type: in vivo, C57BL/6 mice
Details: serum, 4 weeks
Text: Ob/ob mice have a defect in the gene for leptin, a protein involved in appetite regulation and energy metabolism, and are hyperphagic, obese, and insulin resistant. They develop hyperglycemia and fatty liver.

## CN(CCOc1ccc(CC2SC(=O)NC2=O)cc1)c1ccccn1 (stereo not drawn) [Rosiglitazone, rosiglitazone]
1 mg/kg/day oral
  ALT (U/L) ± SEM: 668.8 ± 42.9 U/L
  AST (U/L) ± SEM: 798.0 ± 73.8 U/L
  SDH (U/L) ± SEM: 644.5 ± 51.6 U/L
3 mg/kg/day oral
  ALT (U/L) ± SEM: 716.6 ± 56.6 U/L
  AST (U/L) ± SEM: 853.8 ± 43.8 U/L
  SDH (U/L) ± SEM: 615.4 ± 38.6 U/L
10 mg/kg/day oral
  ALT (U/L) ± SEM: 713.6 ± 80.5 U/L
  AST (U/L) ± SEM: 1024.0 ± 88.7 U/L
  SDH (U/L) ± SEM: 782.0 ± 70.6 U/L
30 mg/kg/day oral
  ALT (U/L) ± SEM: 646.0 ± 56.1 U/L
  AST (U/L) ± SEM: 901.2 ± 49.3 U/L
  SDH (U/L) ± SEM: 603.0 ± 27.3 U/L
